Test in all cases: biochemical
Holding throughout (format): binding

Sequences of proteins named here, by UniProt entry; tags and fusion partners are left off. Residues count along the entry.
UniProt Q30154, 30-266: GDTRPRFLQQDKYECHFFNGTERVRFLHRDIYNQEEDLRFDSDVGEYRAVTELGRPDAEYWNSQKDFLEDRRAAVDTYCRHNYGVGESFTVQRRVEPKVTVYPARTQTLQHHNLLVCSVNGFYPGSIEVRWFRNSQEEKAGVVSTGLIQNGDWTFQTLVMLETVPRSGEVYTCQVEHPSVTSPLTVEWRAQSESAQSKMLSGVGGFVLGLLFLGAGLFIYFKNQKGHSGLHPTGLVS

The target in assay [1] is HLA-DR DRB1*0405 (DR4) (Homo sapiens, UniProt P01903+P01911, A100R/A169T/D86S/F76Y/I96L/K127E/L162R/M171V/N62H/P40V/Q125Y/R42H/S133A/S149N/S66Y/V115G/V209L/W38E). The conditions noted are these: DRB1 *0405.
Assay [2] has as its target HLA-DR DRB1*0401 (DR4) (Homo sapiens, UniProt P01903+P01911, A100K/A169T/F76Y/I96L/K127E/L162R/M171V/N62H/P40V/Q125Y/R42H/S133A/S149N/S66Y/V115G/V209L/W38E).
In assay [3] the target is HLA-DR DRB1*1302 (DR13) (Homo sapiens, UniProt P01903+P01911, A100E/A169T/K41T/L162R/M171V/P40S/Q125H/Q178H/Q39Y/Q99D/R42S/S66N/T262R/V115G/W38E/Y61H). Conditions: DRBI *1302.
In assay [4] the target is HLA-DR DRB1*1501 (DR15) (Homo sapiens, UniProt P01903+P01911). The conditions noted are these: DRBI *1501.
For assay [5], the target named is HLA-DR DRB1*0901 (DR9) (Homo sapiens, UniProt P01903+P01911, A100R/A103E/D57H/D86V/F55Y/F60I/F76Y/I96F/K127E/L162R/M171V/P40D/Q125H/Q99R/R33Q/R42F/S133A/S66N/T210M/V115G/W38K/Y107V/Y59G/Y89S). The conditions noted are these: DRB1 *0901.
The target of assay [6] is HLA-DR DRB1*1101 (DR11) (Homo sapiens, UniProt P01903+P01911, A100R/A169T/A87E/I96F/K41T/L162R/M171V/P40S/Q125H/Q178H/Q39Y/Q99D/R42S/S66Y/T262R/V115G/W38E). The conditions noted are these: DRB1 *1101.
For assay [7], the target named is HLA-DR DRB4*0101 (DR53) (Homo sapiens, UniProt P01903+P13762, G164S). The conditions noted are these: DRB4 *0101.
In assay [8] the target is HLA-DR DRB1*0701 (DR7) (Homo sapiens, UniProt P01903+P01911, A100R/A102G/A103Q/D57E/D86V/E43K/F76Y/K127E/L162R/M171V/P40G/Q125H/Q99D/R33Q/R42Y/R54Q/S133A/S66F/T210M/V115G/Y107V/Y59L/Y89S).
Assay [9] has as its target HLA-DR DRB1*0301 (DR3) (Homo sapiens, UniProt P01903+P01911, A100K/A102G/A103R/A169T/F55Y/I96L/K41T/L162R/M171V/P40S/Q125H/Q178H/Q39Y/R42S/S66N/T106N/T262R/W38E/Y61H).
Assay [10] addresses HLA-DR DRB1*0101 (DR1) (Homo sapiens, UniProt P01903+P01911, A100R/D57E/F55L/F60I/F76Y/I96L/L162R/M171V/P40L/Q125E/R42F/V115G/Y59C). Conditions: DRB1 *0101.
Assay [11] concerns the target HLA-DR DRB5*0101 (DR51) (Homo sapiens, UniProt P01903+Q30154).
For assay [12], the target named is HLA-DR DRB1*0802 (DR8) (Homo sapiens, UniProt P01903+P01911, A100R/A103L/A169T/F76Y/H45Y/I96F/K41T/L162R/M171V/P40S/Q125H/Q178H/Q39Y/Q99D/R218S/R42G/S66Y/V115G/W38E).

Read-outs that look alike come from different tables or passages of the source.

In the case of `CC[C@H](C)[C@H](NC(=O)[C@H](CCCNC(=N)N)NC(=O)[C@H](CC(C)C)NC(=O)[C@H](Cc1ccccc1)NC(=O)[C@@H](NC(=O)[C@H](CCC(=O)O)NC(=O)[C@@H](NC(=O)[C@H](CCCCN)NC(=O)[C@H](CC(=O)O)NC(=O)[C@H](CCSC)NC(=O)[C@@H](N)CC(=O)O)C(C)C)[C@@H](C)O)C(=O)N[C@H](C(=O)N[C@@H](CCC(N)=O)C(=O)N[C@@H](CS)C(=O)N[C@@H](CCCNC(=N)N)C(=O)O)C(C)C`, the IC50 in assay [1] amounted to 0.622 µM; in assay [2] (DRB1 *0401) it was 0.867 µM; in assay [3], 1.23 µM; in [4] it was 0.201 µM; in [5], 16.1 µM; in [6], 0.885 µM. Also, the IC50 in assay [7] was 0.826 µM; in assay [8] (DRB1 *0701) it was 10.5 µM; in assay [9], 4.81 µM; in assay [10], 1.28 µM; in [11] (DRB5 *0101) it was 7.45 µM.
As for `CC(C)C[C@H](NC(=O)[C@H](CCCCN)NC(=O)[C@H](CC(C)C)NC(=O)[C@@H](N)CCCCN)C(=O)N[C@@H](Cc1ccc(O)cc1)C(=O)N[C@H](C(=O)NCC(=O)N[C@@H](CCC(=O)O)C(=O)N[C@@H](C)C(=O)N[C@@H](CS)C(=O)N[C@@H](CCCNC(=N)N)C(=O)N[C@H](C(=O)NCC(=O)N[C@@H](CC(=O)O)C(=O)N[C@@H](CCCNC(=N)N)C(=O)O)[C@@H](C)O)[C@@H](C)O`, the IC50 in assay [2] (DRB1 *0401) worked out at 5.96 µM; in [3], 0.88 µM; in [4], 0.13 µM; in assay [12], 7.68 µM; in assay [7], 20.1 µM; in assay [8] (DRB1 *0701), 8.08 µM. The IC50 in assay [9] amounted to 18.4 µM; in assay [11] (DRB5 *0101) it was 0.636 µM.
For `CC(C)C[C@H](NC(=O)[C@H](CCCNC(=N)N)NC(=O)CNC(=O)[C@H](CC(N)=O)NC(=O)[C@H](CC(C)C)NC(=O)[C@H](CCC(N)=O)NC(=O)[C@H](Cc1c[nH]c2ccccc12)NC(=O)[C@@H](N)CC(C)C)C(=O)N[C@@H](CCC(=O)O)C(=O)N[C@@H](Cc1ccc(O)cc1)C(=O)N[C@@H](CS)C(=O)N[C@@H](CC(C)C)C(=O)N[C@@H](CCCCN)C(=O)N[C@@H](CC(=O)O)C(=O)N[C@@H](CCCNC(=N)N)C(=O)O`, the IC50 is 1.02 µM in assay [1]; 0.816 µM in [2] (DRB1 *0401); 0.808 µM in assay [3]; 0.893 µM in [4]; 5.21 µM in [5]; 4.21 µM in assay [6]. For the same molecule, the IC50 amounted to 15.6 µM in [7], 10.6 µM in [8] (DRB1 *0701), 2.36 µM in assay [9] and 1.11 µM in assay [10].
As for `CC[C@H](C)[C@H](NC(=O)[C@H](CC(N)=O)NC(=O)[C@H](CCC(=O)O)NC(=O)[C@@H](N)CC(N)=O)C(=O)N[C@H](C(=O)N[C@H](C(=O)N1CCC[C@H]1C(=O)N[C@@H](CC(=O)O)C(=O)N[C@H](C(=O)N[C@@H](CCCCN)C(=O)N[C@H](C(=O)N[C@@H](CC(N)=O)C(=O)N[C@@H](Cc1ccccc1)C(=O)N[C@@H](Cc1ccc(O)cc1)C(=O)N[C@@H](C)C(=O)O)C(C)C)[C@@H](C)O)C(C)C)[C@@H](C)O`, the IC50 in [3] came to 9.34 µM; in [4], 22.6 µM; in assay [12], 1.85 µM; in [6], 17.9 µM; in [9], 0.0048 µM; in [11] (DRB5 *0101) it was 12.2 µM.
For `CC(C)C[C@H](NC(=O)[C@H](CCC(N)=O)NC(=O)[C@H](CC(C)C)NC(=O)[C@@H]1CCCN1C(=O)[C@H](CCC(=O)O)NC(=O)[C@H](Cc1c[nH]c2ccccc12)NC(=O)[C@@H]1CCCN1C(=O)[C@@H](N)CCC(N)=O)C(=O)N[C@@H](Cc1c[nH]cn1)C(=O)N[C@H](C(=O)N[C@@H](CC(=O)O)C(=O)N[C@@H](CCCCN)C(=O)N[C@@H](C)C(=O)N[C@H](C(=O)N[C@@H](CO)C(=O)O)C(C)C)C(C)C`, the IC50 in assay [1] stood at 1.11 µM; in assay [2] (DRB1 *0401), 1.3 µM; in assay [3], 0.695 µM; in [9], 4.86 µM.
With `CC[C@H](C)[C@H](NC(=O)[C@H](CCC(=O)O)NC(=O)[C@H](CCC(=O)O)NC(=O)[C@@H]1CCCN1C(=O)[C@@H](NC(=O)[C@H](CC(=O)O)NC(=O)[C@H](Cc1ccccc1)NC(=O)[C@H](CC(N)=O)NC(=O)[C@@H](N)CCCNC(=N)N)[C@@H](C)CC)C(=O)N[C@@H](CCCCN)C(=O)N[C@@H](CCC(N)=O)C(=O)N[C@@H](CC(C)C)C(=O)N[C@@H](CCC(N)=O)C(=O)N[C@@H](CCC(N)=O)C(=O)N[C@@H](Cc1ccccc1)C(=O)O`, the IC50 in [2] (DRB1 *0401) stood at 18.1 µM; in assay [9], 26.3 µM; in assay [10], 6.97 µM.
As to `CC(C)C[C@H](NC(=O)[C@H](CO)NC(=O)[C@@H](NC(=O)[C@H](CCC(N)=O)NC(=O)[C@@H]1CCCN1C(=O)[C@H](CC(N)=O)NC(=O)[C@H](CCC(N)=O)NC(=O)[C@H](CC(C)C)NC(=O)[C@H](Cc1ccccc1)NC(=O)[C@@H](N)CO)[C@@H](C)O)C(=O)N[C@@H](CS)C(=O)N[C@@H](Cc1ccccc1)C(=O)N[C@@H](CO)C(=O)N[C@@H](CCC(=O)O)C(=O)N[C@@H](CO)C(=O)O`, the IC50 in [2] (DRB1 *0401) was 6.38 µM; in [3], 0.19 µM; in assay [4], 6.51 µM; in assay [7] it was 21.7 µM; in assay [9] it was 8.62 µM; in assay [10], 0.595 µM.
With `CC(C)C[C@H](NC(=O)[C@H](CCCCN)NC(=O)CNC(=O)[C@H](CCCNC(=N)N)NC(=O)[C@H](CC(C)C)NC(=O)[C@H](Cc1ccccc1)NC(=O)[C@H](CC(N)=O)NC(=O)[C@@H](N)CO)C(=O)N[C@@H](CCCCN)C(=O)N[C@@H](CC(C)C)C(=O)N[C@@H](Cc1ccc(O)cc1)C(=O)N[C@H](C(=O)NCC(=O)N[C@@H](CCC(=O)O)C(=O)N[C@@H](C)C(=O)O)[C@@H](C)O`, the IC50 in assay [1] amounted to 7.18 µM; in assay [2] (DRB1 *0401) it was 2.88 µM; in assay [3], 4.73 µM; in assay [4], 0.03 µM; in assay [5], 8.1 µM; in assay [7], 2.44 µM. The results for the IC50 in [9] and in assay [11] (DRB5 *0101) were 9.58 µM and 0.0057 µM, respectively.
With `CC(C)C[C@H](NC(=O)[C@H](Cc1c[nH]cn1)NC(=O)[C@H](CC(N)=O)NC(=O)[C@H](CCCNC(=N)N)NC(=O)[C@H](CCC(N)=O)NC(=O)[C@H](Cc1c[nH]cn1)NC(=O)[C@H](Cc1ccc(O)cc1)NC(=O)[C@@H](N)C(C)C)C(=O)N[C@@H](CCCCN)C(=O)N[C@H](C(=O)N[C@H](C(=O)N[C@@H](CC(C)C)C(=O)N[C@@H](CCC(=O)O)C(=O)N[C@@H](CCC(=O)O)C(=O)N[C@@H](CCCCN)C(=O)O)C(C)C)[C@@H](C)O`, the IC50 in assay [2] (DRB1 *0401) is 7.76 µM; in assay [4], 1.66 µM; in [12], 2.1 µM; in assay [6] it was 22 µM; in assay [7], 9.59 µM; in assay [8] (DRB1 *0701) it was 6.18 µM. Also, the IC50 turned out to be 3.13 µM in assay [9], 0.617 µM in [10] and 0.0047 µM in assay [11] (DRB5 *0101).
Regarding LVNSSQPWEPLQLNV, the IC50 in assay [12] (read-out: DRB1 *0802) stood at 16.9 µM; in assay [8] (read-out: DRB1 *0701), 8.34 µM; in assay [9] (read-out: DRB1 *0301), 26.1 µM.
TVSDGNGMNAWVAWRNRC: the IC50 was 1 µM in [2] (read-out: DRB1 *0401), above 8.33 µM in [8] (read-out: DRB1 *0701) and 18.4 µM in assay [9] (read-out: DRB1 *0301).
Consider WTTCQSIAFPSKTSASIGSL, for which the IC50 in assay [2] (read-out: DRB1 *0401) was 0.022 µM; in [9] (read-out: DRB1 *0301), 17.3 µM; in assay [11] (read-out: DRB5 *0101), 0.4 µM.

For the origin of these results see US20060079453A1, “Hla binding peptides and their uses” (priority 2002, published 2006).
